{"sequences": {"note": "By UniProt entry, the sequences of proteins in these tests, tags left out. Where a name states a change or a piece, a line headed by the entry shows the natural chain unless it says otherwise.", "UniProt P29597": "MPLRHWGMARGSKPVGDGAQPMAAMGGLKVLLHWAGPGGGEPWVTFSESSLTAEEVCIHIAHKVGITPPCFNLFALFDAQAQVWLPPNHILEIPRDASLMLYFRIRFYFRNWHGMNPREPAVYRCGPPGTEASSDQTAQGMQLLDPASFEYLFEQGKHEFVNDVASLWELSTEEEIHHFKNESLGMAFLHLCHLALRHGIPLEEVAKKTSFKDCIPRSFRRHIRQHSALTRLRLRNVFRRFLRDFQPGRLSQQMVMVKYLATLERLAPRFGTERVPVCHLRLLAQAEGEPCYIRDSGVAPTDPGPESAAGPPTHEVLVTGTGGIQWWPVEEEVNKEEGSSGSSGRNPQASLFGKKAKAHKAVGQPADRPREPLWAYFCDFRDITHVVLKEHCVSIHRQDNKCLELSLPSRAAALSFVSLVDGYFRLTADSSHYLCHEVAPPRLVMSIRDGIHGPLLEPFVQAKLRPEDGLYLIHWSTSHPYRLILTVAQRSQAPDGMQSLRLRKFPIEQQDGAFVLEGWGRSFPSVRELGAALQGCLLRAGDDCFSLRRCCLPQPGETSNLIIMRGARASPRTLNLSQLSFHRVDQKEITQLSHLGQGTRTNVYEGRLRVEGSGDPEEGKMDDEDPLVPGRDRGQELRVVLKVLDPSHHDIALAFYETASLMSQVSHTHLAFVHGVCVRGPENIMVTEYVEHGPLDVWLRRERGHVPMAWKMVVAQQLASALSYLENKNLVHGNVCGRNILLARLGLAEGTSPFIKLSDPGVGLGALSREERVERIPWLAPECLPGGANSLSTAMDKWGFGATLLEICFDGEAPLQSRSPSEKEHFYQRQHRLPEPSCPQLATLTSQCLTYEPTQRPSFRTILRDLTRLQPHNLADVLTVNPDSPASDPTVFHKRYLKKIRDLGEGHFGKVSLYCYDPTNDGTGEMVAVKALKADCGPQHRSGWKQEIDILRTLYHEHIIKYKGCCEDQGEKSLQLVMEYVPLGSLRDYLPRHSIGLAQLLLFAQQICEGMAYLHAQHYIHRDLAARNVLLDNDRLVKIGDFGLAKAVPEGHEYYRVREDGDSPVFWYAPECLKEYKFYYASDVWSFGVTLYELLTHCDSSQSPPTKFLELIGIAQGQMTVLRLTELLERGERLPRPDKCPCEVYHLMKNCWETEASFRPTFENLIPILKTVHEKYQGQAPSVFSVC"}, "source": "ChEMBL document CHEMBL2390952", "about": "“Novel triazolo-pyrrolopyridines as inhibitors of Janus kinase 1” (Bioorg Med Chem Lett, 2013)", "target": "Non-receptor tyrosine-protein kinase TYK2 (Homo sapiens, UniProt P29597)", "test": "Inhibition of TYK2 (unknown origin)", "data": [{"compound": "N#CCCN[C@H]1CC[C@H](n2nnc3cnc4[nH]ccc4c32)CC1", "values": [{"measurement": "Ki", "value": 0.08, "unit": "µM"}]}]}
